Measurements from patent US20080058324A1, “Alpha-Keto Carbonyl Calpain Inhibitors” (SANTHERA PHARMACEUTICALS (SCHWEIZ) AG, priority 2004, published 2008).

Amino acid sequences for entries named in this document (tags omitted). Residues count along the entry.
UniProt G1T4Q9, 60-263 limits assumed: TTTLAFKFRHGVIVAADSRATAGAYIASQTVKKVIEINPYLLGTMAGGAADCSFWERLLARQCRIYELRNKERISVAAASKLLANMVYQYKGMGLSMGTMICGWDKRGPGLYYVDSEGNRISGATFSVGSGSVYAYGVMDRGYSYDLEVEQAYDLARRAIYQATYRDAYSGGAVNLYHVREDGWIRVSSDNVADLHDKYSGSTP

Tests used:
mdx mouse = mdx mouse model for Duchenne Muscular Dystrophy, longterm treatment; conditions: 3 week old mdx mice, treatment period of 4 weeks
[1] = tested on: cellular calpains in C2C12 myoblasts; test: Calpain Inhibition Assay in C2C12 Myoblasts; conditions: read-out: Calp I IC50 Myoblast
20S Proteasome = 20S Proteasome (Oryctolagus cuniculus, UniProt G1T4Q9); test: 20S Proteasome Assay; conditions: read-out: 20S Prot IC50

With `CC(C)[C@H](NC(=O)OCc1ccccc1)C(=O)N[C@H](C=O)Cc1ccccc1` the “activity in the mdx mouse model” value (mdx mouse) was “only weak activity”, the IC50 [1] was 40 µM and the IC50 (20S Proteasome) was > 1 µM.
